Reference: patent US11738091B2, “Method for terminating cancer cells with an azole-based compound” (Imam Abdulrahman Bin Faisal University, priority 2019, dated 2023)

Tested on: HCT-116 cells
Assay: MTT assay of cancer cell viability
Details: 48 hours
Description: CANCER CELL TREATMENTS: Human colorectal carcinoma cells (HCT-116) cells were grown according to a method described in Khan, F. A.; Akhtar, S.; Almohazey, D.; Alomari, M.; Almofty, S. A.; Eliassari, A. “Fluorescent magnetic submicronic polymer (FMSP) nanoparticles induce cell death in human colorectal carcinoma cells” Artif Artif. Cells, Nanomed., Biotechnol. 2018, (doi: 10.1080/21691401.2018.1491476). HCT-116 cells were grown in Dulbecco Modified Eagle Medium (DMEM), 10% fetal bovine serum, L-glutamine, selenium chloride, penicillin, and streptomycin. The cells were cultured in a CO2 incubator (Heracell 150i, Thermo-scientific, USA) at 37° C. under 5% CO2 for 48 to 72 hours. Confluenced cells were seeded into 96-well cell plates and, once the cells became 80% confluenced, the cancer cells were treated with different concentrations ([…]) of Conj. 1, Conj. 2, Conj. 3, Conj. 4, Conj. 5 respectively. […] Each sample was taken in triplicate to obtain a statistical analysis.
CANCER CELLS VIABILITY BY MTT ASSAY: To examine effect of Conj. 1, Conj. 2, Conj. 3, Conj. 4, Conj. 5 on cancer cells, a 3-(4,5-dimethylthiazol-2-yl)-2,5-diphenyltetrazolium bromide (MTT) assay was conducted on the cells. The cancer cells were seeded at 6×10^4 cells/mL concentration in 96-well culture plates containing DMEM, 10% Fetal bovine serum, penicillin, and streptomycin and were incubated in CO2 incubator until the cells were 80% confluenced. The cancer cells were then treated with Conj. 1, Conj. 2, Conj. 3, Conj. 4, Conj. 5 at concentrations of 1.3, 3.26, and 6.5 mg/mL, whereby no conjugate was added in the control groups. A 5.0 mg/mL MTT solution was added into each well, and the cells were again incubated for 4 hours in the CO2 incubator and finally media was changed with the addition of DMSO. The samples were then measured using an ELISA plate reader (Biotek Instruments, USA) at wavelength 570 nm.
The following formula was used to calculate percentage of cell viability: % of Cell viability=[Optical density (O.D) of Conj. 1, Conj. 2, Conj. 3, Conj. […]
1, Conj. […] 5 treated groups were calculated. […]

For SiO2-3GPS-Imi [Conj. 5], the “cancer cell viability (% of the control)” value (HCT-116, 1.3 mg/mL) was 71.17%, the “cancer cell viability (% of the control)” value (HCT-116, 3.26 mg/mL) was 62.22% and the “cancer cell viability (% of the control)” value (HCT-116, 6.5 mg/mL) was 43.28%.
